Some results for these compounds are left out of this collection, so the calls shown say nothing about other tests.

As a reminder, the pKa is the pH at which an ionisable group is half protonated.

For the data set the following is noted: experimental values, compiled.
As for `CCCCN(CCCl)CCCl`, the pKa worked out at 6.63.
As to `CC(C)N(CCCl)CCCl`, the pKa worked out at 7.
Compound `CN(CCO)CCCl` came in with a pKa of 7.5.
The compound `CCCN(CCCl)CCCl` came in with a pKa of 6.7.

The values are drawn from the pKa sets of Baltruschat and Czodrowski (2020).
